Values quoted from earlier work, collected in patent US11357232B2, “Methods of improving soil health, growth and vigor of perennial grass communities” (Edaphix, LLC, priority 2013, dated 2022).

System: humans
Conditions: U.S. EPA, 2005 carcinogen assessment guidelines; cited from earlier work

Q: With OB(O)O [Boric acid] as the compound, how does the carcinogenicity classification read?
A: not likely to be carcinogenic to humans
